Assay results as given in US20250381110A1, “SKIN CARE COMPOSITION AND METHOD OF USING THE SAME” (THE PROCTER & GAMBLE COMPANY, priority 2024, published 2025).
Counter-ions that a name gives are not always drawn.

Test system: p62-dependent mitophagy
Assay: Luciferase-p62 assay (Fluc-p62 clearance) in mouse embryonic fibroblasts
Assay type: cell-based
Conditions: for Mean Luminescence: Luciferase-p62 assay, mouse embryonic fibroblasts (MEFs), compounds at 10 μM; for % Activity relative to Rapamycin: percentage of activity relative to rapamycin tested in the same experiment at the same concentration; for % Activity relative to Rapamycin / % Activity over baseline: MEFs, 10 μM; for % Activity over baseline: percentage of Luciferase-p62 clearance relative to baseline (mean luminescence in the absence of doxycycline induction)

SMILES: C[C@@H]1CC[C@H]2[C@@H](C)C(=O)O[C@@H]3O[C@@]4(C)CC[C@@H]1[C@]32OO4 [Artemisinine]
- Mean Luminescence: 982.40
- % Activity relative to Rapamycin: 70.78%

SMILES: CC(C)NCC(O)c1ccc(O)c(O)c1 (centres unmarked) [Isoprenaline HCl]
- Mean Luminescence: 908.26
- % Activity over baseline: 43.87%
- % Activity relative to Rapamycin: 79.04%

SMILES: N=C(N/N=C/c1ccc(Cl)cc1)N/N=C/c1ccc(Cl)cc1 [Robenidine hydrochloride]
- Mean Luminescence: 794.31
- % Activity over baseline: 50.91%
- % Activity relative to Rapamycin: 91.73%
